{
  "source": "patent US20210023238A1",
  "about": "“TRIPTOLIDE ANTIBODY CONJUGATES” (City of Hope, priority 2019, published 2021)",
  "key": {"[1]": {"system": "A549 NSCLC cells", "assay": "CCK-8 cell proliferation / cytotoxicity, A549", "format": "cell-based", "conditions": "A549 (EGFR+++), 72 h, CCK-8, 3.125-100 ug/ml tested", "protocol": "(§1) The cytotoxic effects of TPL, Cet, Cet-TPL on non-small cell lung cancer (NSCLC) cell proliferation was determined using Cell Counting Kit-8 (CCK-8) kit. H520, H1299, and A549 cells were plated at a density of 3×10^3 cells/well in 96-well multiplates. After 24 h, 3.125-100 ug/ml of IgG, Cetuximab, Cet-TPL-DAR-0.4, Cet-TPL-DAR-2, Cet-TPL-DAR-4, Cet-TPL-DAR-6 were added to wells respectively and further incubated with cells for 72 h. Then after, 10 ul of CCK-8 solution was added to each well and further developed for 2 h. The absorbance values were detected at a wavelength of 450 nm using a Bio-Rad microplate reader. The cell viability was calculated by the optical density (OD) values of treated groups/OD values of control groups (Vehicle/PBS)×100%. IgG was also used as a control for Cetuximab in some experiments."}, "[2]": {"system": "H1299 NSCLC cells", "assay": "CCK-8 cell proliferation / cytotoxicity, H1299", "format": "cell-based", "conditions": "H1299 (EGFR+++), 72 h, CCK-8, 3.125-100 ug/ml tested", "protocol": "as §1"}, "[3]": {"system": "H520 NSCLC cells", "assay": "CCK-8 cell proliferation / cytotoxicity, H520", "format": "cell-based", "conditions": "H520 (EGFR+/-), 72 h, CCK-8, 3.125-100 ug/ml tested", "protocol": "as §1"}, "[4]": {"system": "NSCLC cells (H520, H1299, A549)", "assay": "CCK-8 cell proliferation / cytotoxicity, NSCLC cell lines overall", "format": "cell-based", "conditions": "regardless of EGFR expression level; result in words", "protocol": "as §1\nCetuximab-Triptolide conjugates have various cytotoxic effects in these cells."}, "[5]": {"system": "A549 xenografts", "assay": "A549 xenograft, Ki-67 immunohistochemistry", "format": "in vivo, mice", "conditions": "i.p. twice/week, compared to Vehicle and TPL or Cetuximab alone, FIG. 17", "protocol": "(§2) NOD/SCID/IL2Rgamma null mice (NSG) mice (Jackson Labs, Bar Harbor, Me.; 24-27 g, 6-8 weeks of age) were used for xenograft experiment. A suspension of 5×10^6 A549 and H520 cancer cells in 0.1 ml DMEM or RPMI 1640 was mixed with 0.1 ml BD Matrigel™ (BD Science) and injected into the subcutaneous dorsa of mice at the proximal midline. When the tumor volume was about 90-110 mm^3, mice were randomized into 5 treatment groups, and each group included 8 mice. Mouse treatment was performed by intraperitoneal injection of either Vehicle (PBS), 0.5 or 1.0 mg/Kg of Triptolide, 50 mg/Kg of Cetuximab, or 25 or 50 mg/Kg of Cetuximab-TPL in 100 μl of PBS, twice/week for about 2 to 3.5 weeks. Xenograft growth in vivo was measured during whole period of treatment, and tumor volume were calculated and presented as\nin unit of mm^3. At the end of experiment, mice were euthanized and xenograft tissues were removed and weighted. Exemplary results are shown in FIG. 15 and FIG. 18 (growth inhibition (size over time)) and FIG. 16 and FIG. 19 (in vivo antitumor effect (weight over time)).\n(§3) The xenograft tissues were then fixed and analyzed by IHC. […] The positively stained cancer cells were counted, and the percentages of positively stained cancer cells to total cancer cells were quantitative analysed."}, "[6]": {"system": "lung squamous cancer patient-derived xenograft 1 (PDX1)", "assay": "PDX1 xenograft, Ki-67 immunohistochemistry", "format": "in vivo, mice", "conditions": "PDX1 xenografts; compared to Vehicle and TPL or Cetuximab alone; FIG. 20", "protocol": "FIGS. 20A-20B present illustrative data showing the effects of Cetuximab-TPL on A549 xenografts. FIG. 20A immunohistochemistry staining of proliferation marker Ki-67 in PDX1 xenografts treated with either Vehicle (IgG, 50 mg/Kg, panel A), Triptolide (0.5 mg/Kg, panel B), Cetuximab (50 mg/Kg, panel C), or Cetuximab-TPL (50 mg/Kg, panel D). These images were taken at a magnification of ×200.\nas §2, with “Mouse treatment was performed by intraperitoneal injection of either Vehicle (PBS), 0.5 or 1.0 mg/Kg of Triptolide, 50 mg/Kg of Cetuximab, or 25 or 50 mg/Kg of Cetuximab-TPL in 100 μl of PBS, twice/week for about 2 to 3.5 weeks.” left out\nas §3"}, "[7]": {"system": "A549 cells", "assay": "Internalization: immunofluorescence of labeled Cet-TPL with LysoTracker", "format": "cell-based", "conditions": "Alexa-red labeled Cet-TPL, LysoTracker Green; FIG. 25A", "source_text": "FIGS. 25A-25B present illustrative data showing internalization and distribution of Cetuximab-Triptolide (Cet-TPL) in EGFR-expressing cancer cells and xenografts."}},
  "data": [
    {"substance": "CET-TRP DAR-0.4: Cetuximab-TPL conjugate, 5 eq TPL-NHS per Cetuximab, drug to antibody ratio 0.4", "values": [
      {"measurement": "IC50", "setting": "[1]", "value": "<100", "unit": "mg/L"},
      {"measurement": "IC50", "setting": "[2]", "value": "~50", "unit": "mg/L"},
      {"measurement": "IC50", "setting": "[3]", "value": 100, "unit": "mg/L"},
      {"measurement": "in vitro proliferation of NSCLC cells / cytotoxic effects", "setting": "[4]", "value": "the least efficient"}
    ]},
    {"substance": "Cetuximab-TPL", "values": [
      {"measurement": "percentage of the Ki67-positive cancer cells", "setting": "[5]", "value": "significantly decreased"},
      {"measurement": "percentage of the Ki67-positive cancer cells", "setting": "[6]", "value": "significantly decreased"},
      {"measurement": "localization of Cet-TPL and lysosome", "setting": "[7]", "value": "colocalization of Cet-TPL and lysosome stains"}
    ]},
    {"substance": "CET-TRP DAR-2: Cetuximab-TPL conjugate, 10 eq TPL-NHS per Cetuximab, drug to antibody ratio 2", "values": [
      {"measurement": "IC50", "setting": "[1]", "value": "<100", "unit": "mg/L"},
      {"measurement": "IC50", "setting": "[2]", "value": "<50", "unit": "mg/L"},
      {"measurement": "IC50", "setting": "[3]", "value": "50 to 100", "unit": "mg/L"}
    ]},
    {"substance": "CET-TRP DAR-4: Cetuximab-TPL conjugate, 20 eq TPL-NHS per Cetuximab small scale, drug to antibody ratio 4", "values": [
      {"measurement": "IC50", "setting": "[1]", "value": "<50", "unit": "mg/L"},
      {"measurement": "IC50", "setting": "[2]", "value": "<25", "unit": "mg/L"},
      {"measurement": "IC50", "setting": "[3]", "value": "50 to 100", "unit": "mg/L"},
      {"measurement": "in vitro proliferation of NSCLC cells / cytotoxic effects", "setting": "[4]", "value": "stronger than DAR-2"}
    ]},
    {"substance": "cetuximab [reference compound]", "values": [
      {"measurement": "IC50", "setting": "[1]", "value": ">100", "unit": "mg/L"},
      {"measurement": "IC50", "setting": "[2]", "value": ">100", "unit": "mg/L"},
      {"measurement": "IC50", "setting": "[3]", "value": ">100", "unit": "mg/L"},
      {"measurement": "in vitro proliferation of NSCLC cells / cytotoxic effects", "setting": "[4]", "value": "did not significantly suppress"}
    ]}
  ]
}
